Data from patent US20030153539A1, “Method to potentiate the therapeutic efficacy of taxane and derivatives thereof” (priority 2000, published 2003).

By UniProt entry, the sequences of proteins in these tests, tags left out.
UniProt P05177, whole entry: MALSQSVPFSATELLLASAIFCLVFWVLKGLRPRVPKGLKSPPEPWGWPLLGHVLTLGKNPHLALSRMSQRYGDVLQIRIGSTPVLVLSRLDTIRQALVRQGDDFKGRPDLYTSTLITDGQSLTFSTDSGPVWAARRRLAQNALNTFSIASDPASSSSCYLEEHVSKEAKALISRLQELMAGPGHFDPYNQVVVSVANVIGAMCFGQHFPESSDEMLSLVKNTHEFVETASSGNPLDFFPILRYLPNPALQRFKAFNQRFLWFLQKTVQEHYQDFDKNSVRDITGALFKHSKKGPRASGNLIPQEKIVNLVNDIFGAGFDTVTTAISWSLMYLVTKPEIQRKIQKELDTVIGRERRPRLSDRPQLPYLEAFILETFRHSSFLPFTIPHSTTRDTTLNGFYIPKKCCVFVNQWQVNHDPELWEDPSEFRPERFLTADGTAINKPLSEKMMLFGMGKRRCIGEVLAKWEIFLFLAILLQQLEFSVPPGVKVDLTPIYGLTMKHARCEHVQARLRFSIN
UniProt P11712, whole entry: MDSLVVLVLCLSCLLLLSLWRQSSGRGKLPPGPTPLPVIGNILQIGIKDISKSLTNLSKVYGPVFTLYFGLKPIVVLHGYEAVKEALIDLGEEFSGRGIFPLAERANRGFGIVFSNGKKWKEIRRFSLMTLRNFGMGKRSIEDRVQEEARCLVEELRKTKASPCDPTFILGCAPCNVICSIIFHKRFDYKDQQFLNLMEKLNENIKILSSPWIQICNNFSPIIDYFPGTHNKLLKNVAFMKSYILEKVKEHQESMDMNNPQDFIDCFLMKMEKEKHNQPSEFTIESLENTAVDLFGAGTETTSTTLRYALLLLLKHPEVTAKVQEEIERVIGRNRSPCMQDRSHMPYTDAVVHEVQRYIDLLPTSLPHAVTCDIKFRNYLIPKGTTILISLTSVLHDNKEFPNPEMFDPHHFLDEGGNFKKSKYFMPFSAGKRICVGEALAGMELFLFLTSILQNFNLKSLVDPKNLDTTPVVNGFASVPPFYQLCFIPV
UniProt P33261, whole entry: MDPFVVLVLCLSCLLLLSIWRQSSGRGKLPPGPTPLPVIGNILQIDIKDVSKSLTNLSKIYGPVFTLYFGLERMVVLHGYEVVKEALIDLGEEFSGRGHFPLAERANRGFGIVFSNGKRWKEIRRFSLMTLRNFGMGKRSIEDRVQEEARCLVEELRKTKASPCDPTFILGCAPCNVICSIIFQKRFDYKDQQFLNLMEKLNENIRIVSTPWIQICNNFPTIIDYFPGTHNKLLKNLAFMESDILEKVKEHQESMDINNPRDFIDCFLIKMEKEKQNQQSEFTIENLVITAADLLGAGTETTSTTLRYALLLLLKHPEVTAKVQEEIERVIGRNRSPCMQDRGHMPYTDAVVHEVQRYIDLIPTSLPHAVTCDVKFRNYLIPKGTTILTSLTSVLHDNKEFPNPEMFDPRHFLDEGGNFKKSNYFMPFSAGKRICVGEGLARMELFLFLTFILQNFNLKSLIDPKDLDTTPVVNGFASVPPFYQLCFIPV
UniProt P10635, whole entry: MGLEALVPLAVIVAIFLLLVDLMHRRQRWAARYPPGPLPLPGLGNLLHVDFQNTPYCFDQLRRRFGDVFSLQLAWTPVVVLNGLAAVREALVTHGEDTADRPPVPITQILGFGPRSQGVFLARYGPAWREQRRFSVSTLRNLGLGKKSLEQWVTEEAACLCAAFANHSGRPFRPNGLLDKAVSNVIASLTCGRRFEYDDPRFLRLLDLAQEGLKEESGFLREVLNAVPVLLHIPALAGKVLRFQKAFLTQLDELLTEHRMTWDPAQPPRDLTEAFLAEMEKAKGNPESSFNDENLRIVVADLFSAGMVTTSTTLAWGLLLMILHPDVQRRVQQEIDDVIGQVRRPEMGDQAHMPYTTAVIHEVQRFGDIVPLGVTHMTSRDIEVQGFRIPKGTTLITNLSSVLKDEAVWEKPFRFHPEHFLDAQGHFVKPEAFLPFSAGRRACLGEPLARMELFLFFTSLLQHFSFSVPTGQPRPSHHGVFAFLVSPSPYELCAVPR
UniProt P08684, whole entry: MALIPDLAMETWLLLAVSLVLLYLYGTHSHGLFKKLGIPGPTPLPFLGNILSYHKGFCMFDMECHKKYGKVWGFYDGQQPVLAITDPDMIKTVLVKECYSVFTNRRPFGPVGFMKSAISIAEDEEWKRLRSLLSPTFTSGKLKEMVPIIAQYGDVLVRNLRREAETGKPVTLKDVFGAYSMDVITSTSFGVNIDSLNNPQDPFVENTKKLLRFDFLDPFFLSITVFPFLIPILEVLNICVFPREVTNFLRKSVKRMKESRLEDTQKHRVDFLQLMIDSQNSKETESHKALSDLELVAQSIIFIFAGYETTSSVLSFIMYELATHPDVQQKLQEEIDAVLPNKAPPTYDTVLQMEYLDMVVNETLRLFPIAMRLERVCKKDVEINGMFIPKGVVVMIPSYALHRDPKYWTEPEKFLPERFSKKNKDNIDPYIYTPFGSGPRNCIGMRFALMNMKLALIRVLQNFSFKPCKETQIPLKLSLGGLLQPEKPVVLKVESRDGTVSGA

How the values were obtained:
Conditions in all cases: control 100%, mean of n=3
CYP1A2 = CYP1A2 (Homo sapiens, UniProt P05177); assay: In vitro inhibition of cDNA expressed human CYP1A2 (chlorzoxazone substrate, radio-HPLC)
Method: (§1) All incubations were conducted in triplicate.
(§2) See table 2 for HPLC mobile phase conditions.

CYP2C9 = CYP2C9 (Homo sapiens, UniProt P11712); assay: In vitro inhibition of cDNA expressed human CYP2C9 (diclofenac substrate, radio-HPLC)
Method: as §1, §2

CYP2C19 = CYP2C19 (Homo sapiens, UniProt P33261); assay: In vitro inhibition of cDNA expressed human CYP2C19 ((S)-mephenytoin substrate, radio-HPLC)
Method: as §1, §2

CYP2D6 = CYP2D6 (Homo sapiens, UniProt P10635); assay: In vitro inhibition of cDNA expressed human CYP2D6 (delavirdine substrate, radio-HPLC)
Method: as §1, §2

CYP3A4 = CYP3A4 (Homo sapiens, UniProt P08684); assay: In vitro inhibition of cDNA expressed human CYP3A4 (testosterone substrate, radio-HPLC)
Method: as §1, §2

With C[C@]12CC[C@@H]3c4ccc(OC(=O)N(CCCl)CCCl)cc4CC[C@H]3[C@@H]1CC[C@@H]2OP(=O)(O)O [Estramustine phosphate, estramustine phosphate, reference compound] the “percentage of activity remaining in the presence of the compound” value (“percentage of activity remaining” for short) (CYP1A2; CYP1A2, compound at 10 μM) was 99.8%, the “percentage of activity remaining” value (CYP1A2; CYP1A2, compound at 100 μM) was 61.3% and the “percentage of activity remaining” value (CYP2C9; CYP2C9, compound at 10 μM) was 88.6%. The “percentage of activity remaining” value (CYP2C9; CYP2C9, compound at 100 μM) was 71.6%, the “percentage of activity remaining” value (CYP2C19; CYP2C19, compound at 10 μM) was 93.9% and the “percentage of activity remaining” value (CYP2C19; CYP2C19, compound at 100 μM) was 87.5%. The “percentage of activity remaining” value (CYP2D6; CYP2D6, compound at 10 μM) was 87.1%, the “percentage of activity remaining” value (CYP2D6; CYP2D6, compound at 100 μM) was 70.7% and the “percentage of activity remaining” value (CYP3A4; CYP3A4, compound at 10 μM) was 80.7%. The “percentage of activity remaining” value (CYP3A4; CYP3A4, compound at 100 μM) was 47.9%.
